Yeast mating assay 2: variants of the scFv Ab-91

From the AlphaSeq antibody data of Engelhart et al. 2022 (doi:10.1038/s41597-022-01779-4), copy in the FLAb collection.

All variants were tested on one target, the spike HR2 peptide PDVDLGDISGINAS (SARS-CoV-2).

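Phage display of a naive human antibody library on the peptide gave the parent. AAYL51 was designed without a model: most single CDR substitutions and a random sample of double and triple ones. Affinity was read by AlphaSeq, a pooled yeast mating assay with surface-displayed partners. Pairs that bind mate more often; barcode pairs of the diploids are counted by sequencing. Read counts were normalised to the haploid input and turned into Kd by a linear fit to BCL2-family pairs of known affinity, for each replicate. Mating was done three times.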

Parent scFv Ab-91: VL joined to VH by a (GGGGS)3 linker. Changes lie in the heavy chain CDRs alone.
VL: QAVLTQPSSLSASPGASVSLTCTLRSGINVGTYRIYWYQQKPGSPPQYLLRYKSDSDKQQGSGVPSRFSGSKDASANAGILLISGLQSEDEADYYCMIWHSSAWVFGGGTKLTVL
VH: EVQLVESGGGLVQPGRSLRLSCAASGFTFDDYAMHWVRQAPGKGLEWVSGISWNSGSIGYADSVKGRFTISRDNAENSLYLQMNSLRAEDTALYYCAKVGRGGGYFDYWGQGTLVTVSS

Substitutions are numbered in sequence along the VH above, starting at 1 (not Kabat). Scale: log10 of Kd in nM, estimated from mating counts; low values are strong binders. A mean of the replicates is given; it leaves out those without a signal. An entry "nd" has no value in the source: the pair was not observed among the diploids in that replicate. This suggests poor binding but is not conclusive.

Variant S55M+V64M+R101I showed 4.04, nd, nd (controls 3 of 9).
Variant I51V+S52F+G103Q showed nd, 4.92, nd (controls 2 of 9).
Variant A33W+S52M+N54G showed nd, nd, nd (controls 0 of 9).
Variant D31L+V99K+G102R showed nd, nd, nd (controls 2 of 9).
Variant G26H+G50C+D107E showed nd, nd, nd (controls 0 of 9).
Variant N54T+F106I showed 4.80, nd, nd (controls 1 of 9).
Variant A61E showed 2.77, 3.74, nd (mean 3.26; controls 0 of 9).
Variant F27R+S63Q+G100M showed nd, 4.99, nd (controls 1 of 9).
Variant A33E+S55F showed nd, nd, nd (controls 0 of 9).
Variant T28F+F29Q+A61E showed 5.38, nd, nd (controls 4 of 9).
Variant M34E+W53R+N54H showed nd, nd, nd (controls 1 of 9).
Variant Y60I+G102L+F106P showed 4.41, 4.39, nd (mean 4.40; controls 5 of 9).
Variant A61N+V99P+D107N showed 2.04, 2.48, 2.03 (mean 2.18; controls 5 of 9).
Variant W53H+I58F+G102Y showed 3.65, 3.61, nd (mean 3.63; controls 1 of 9).
Variant T28Y+A33R+N54C showed nd, nd, nd (controls 0 of 9).
Variant D31P+M34K+S63W showed nd, nd, nd (controls 0 of 9).
Variant F27M+T28M+D31V showed 4.45, 4.46, 3.69 (mean 4.20; controls 6 of 9).
Variant G26H+Y60D+G102C showed nd, nd, 4.30 (controls 4 of 9).
Variant G59W+Y105F+D107V showed 5.71, 4.84, 5.79 (mean 5.45; controls 4 of 9).
Variant F29A+D107A showed 3.62, nd, nd (controls 2 of 9).
Variant N54C+Y108K showed nd, nd, nd (controls 2 of 9).
Variant T28Y+M34C+N54D showed 5.23, nd, 5.54 (mean 5.39; controls 5 of 9).
Variant G26C+W53Y+I58Y showed nd, nd, nd (controls 1 of 9).
Variant F27G+Y32Q+S55V showed nd, nd, nd (controls 0 of 9).
Variant F27L+Y60W showed nd, nd, nd (controls 2 of 9).
Variant F27R+D30W+G59M showed 4.46, 4.48, nd (mean 4.47; controls 1 of 9).
Variant F29C+V64E+G102C showed 4.12, 4.10, 5.02 (mean 4.41; controls 3 of 9).
Variant S57Y+V99C+G102L showed 4.61, nd, nd (controls 1 of 9).
Variant S52C+G56E+R101G showed nd, nd, nd (controls 0 of 9).
Variant F27S+V64Q+F106L showed nd, nd, nd (controls 2 of 9).
Variant F27L+T28K+S52F showed 4.95, 4.16, nd (mean 4.56; controls 4 of 9).
Variant D31R+I51V+G59E showed 3.70, 4.20, 3.76 (mean 3.89; controls 0 of 9).
Variant S57V+Y60F showed 4.61, 5.68, nd (mean 5.14; controls 2 of 9).
Variant H35Q+W53G+V99M showed nd, 4.12, nd (controls 0 of 9).
Variant M34T+G56Y+V64G showed nd, nd, nd (controls 3 of 9).
Variant G56N+R101Q+Y108H showed nd, nd, nd (controls 0 of 9).
Variant G26E+S52T+W53G showed nd, nd, nd (controls 0 of 9).
Variant G26H+S63Q+R101T showed 3.96, nd, nd (controls 0 of 9).
Variant T28V+N54Y+Y105M showed 4.79, 5.55, nd (mean 5.17; controls 5 of 9).
Variant G56C+K65C showed nd, nd, nd (controls 1 of 9).
Variant N54H+A61E+S63Q showed 4.74, nd, 4.71 (mean 4.72; controls 1 of 9).
Variant H35E+N54H+V64H showed nd, nd, nd (controls 0 of 9).
Variant G59M+Y60A+D107P showed nd, nd, nd (controls 0 of 9).

Excerpt, the final 3 entries:

changes	replicates, log10 nM	mean log10 Kd (nM)	signal with controls
N54H+A61E+S63Q	4.74, nd, 4.71	4.72	1/9
H35E+N54H+V64H	nd, nd, nd	nd	0/9
G59M+Y60A+D107P	nd, nd, nd	nd	0/9

Background: pairings of library AAYL51 with three empty control strains gave a value in 21% of cases (median 4.54, 5th percentile 3.26). Values in that range, when seen in few replicates, are hard to tell from nonspecific mating. For each scFv, signals with the empty controls are counted beside the result.